# Data reported in patent US20180344702A1, “METHODS FOR TREATING PATIENTS WITH HEMATOLOGIC MALIGNANCIES” (Aptose Biosciences, Inc., priority 2017, published 2018).
# The chains behind the UniProt entries cited, without tags or fusion partners. Where a name states a change or a piece, a line headed by the entry shows the natural chain unless it says otherwise.
# UniProt Q06187: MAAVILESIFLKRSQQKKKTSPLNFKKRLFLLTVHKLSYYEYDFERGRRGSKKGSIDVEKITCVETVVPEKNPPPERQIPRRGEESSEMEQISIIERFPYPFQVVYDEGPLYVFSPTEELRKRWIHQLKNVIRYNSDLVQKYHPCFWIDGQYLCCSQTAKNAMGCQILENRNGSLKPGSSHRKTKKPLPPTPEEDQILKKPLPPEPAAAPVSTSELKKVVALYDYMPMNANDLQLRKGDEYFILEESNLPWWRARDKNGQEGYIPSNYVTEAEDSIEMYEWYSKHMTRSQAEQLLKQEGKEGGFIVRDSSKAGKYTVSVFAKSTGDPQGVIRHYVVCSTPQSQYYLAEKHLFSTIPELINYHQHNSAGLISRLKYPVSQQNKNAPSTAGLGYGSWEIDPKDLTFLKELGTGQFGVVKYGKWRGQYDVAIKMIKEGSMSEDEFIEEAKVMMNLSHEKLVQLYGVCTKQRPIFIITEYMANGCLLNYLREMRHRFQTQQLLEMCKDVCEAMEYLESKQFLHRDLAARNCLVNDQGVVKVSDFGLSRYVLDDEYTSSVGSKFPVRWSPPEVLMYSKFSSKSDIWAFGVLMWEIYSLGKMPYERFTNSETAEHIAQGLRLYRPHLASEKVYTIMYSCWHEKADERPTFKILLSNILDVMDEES
# Target: BTK WT (Homo sapiens, UniProt Q06187)
# Assay: Comparative potency against BTK (Table 8)
# Format: biochemical
# Conditions: Table 8, wild-type BTK
smiles,measurement,value
C=CC(=O)Nc1cccc(Nc2nc(Nc3ccc(OCCOC)cc3)ncc2F)c1 [CC-292],IC50,< 500 pM
